The data set deals with horses. Put plainly: Alfaxalone/HPCD anesthesia in the horse. Conditions: after xylazine premedication. The procedure:
In the first stage, two horses were anesthetized after heavy premedication with xylazine (0.6 mg/kg). […] Heart rate, respiratory rate, blood pressure, ECG and ventilation were monitored throughout the anesthesia period.
The same parameters as in the first stage were monitored.
Cardiopulmonary parameters were monitored as before.
To provide some comparison in the above stages, the two horses were anesthetized with thiamylal sodium (8 mg/kg) after the same premedication as before and a similar monitoring regime followed.
A third horse was obtained and the same regimen was followed as in the third stage, but three "top-ups" of one-third induction dose were administered at 10 minute intervals. Similar monitoring as above was continued.
Blood pressure was measured from an acutely placed antraarterial catheter and read through a transducer/digital readout system which included an ECG tracing oscilloscope.

For the molecule `CC(=O)[C@H]1CC[C@H]2[C@@H]3CC[C@H]4C[C@H](O)CC[C@]4(C)[C@H]3C(=O)C[C@]12C` (stereo in doubt) [alfaxalone, 3α-hydroxy-5α-pregnane-11,20-dione], the blood pressure effect entry is “hypertension”.

The values are drawn from EP0399716A1, “Hypoallergenic steroidal anesthetic/hypnotic compositions” (INNOVET, INC., priority 1989, dated 1990).
